Reference: PubChem BioAssay AID2315 (National Center for Advancing Translational Sciences (NCATS), 2010)
The list shows a part of the results, in another mix than the full data. Some of these compounds have results that are not shown, active ones among them. Activity calls are given as the source filed them. Rule as the data show it: active = inhibition mostly above about 28% (no sharp cut-off); inactive = mostly below about 43%.

assay: A qHTS for Small Molecule Inhibitors of Shiga Toxin; conditions: Vero cells, Shiga toxin protein synthesis inhibition reporter; at 38.7 µM; active compounds read high; also: 0% is about no effect

SMILES | inhibition
O=C(OC1CN2CCC1CC2)C(CO)(c1ccccc1)c1ccccc1 (centres undefined) | inactive: -8.02%
CN(C)c1cccc(C(=O)NCC2(N(C)C)CCCCC2)c1 | inactive: 9.11%
CC(C)Oc1ccc(C(=O)NCC2(N(C)C)CCCCC2)cc1 | inactive: -3.47%
COc1ccc(Br)c(C(=O)NCC2(N3CCCCC3)CCCCC2)c1 | inactive: -7.67%
COc1cc(C(=O)NCC2(N(C)C)CCCCC2)c([N+](=O)[O-])cc1OC | inactive: 22.2%
CN(C)C1(CNC(=O)c2ccc(Br)cc2)CCCCC1 | inactive: -0.728%
O=C(NCC1(N2CCCCC2)CCCCC1)c1cccc(Cl)c1 | inactive: -8.2%
COc1cccc(C(=O)NCC2(N3CCCCC3)CCCCC2)c1 | inactive: -2.36%
COc1ccc(Cl)cc1C(=O)NCC1(N(C)C)CCCCC1 | inactive: 22.3%
Cc1ccccc1C(=O)NCC1(N2CCCCC2)CCCCC1 | inactive: -7.75%
CN(C)c1ccc(C(=O)NCC2(N(C)C)CCCCC2)cc1 | inactive: 35.2%
CN(C)C1CCCC1OC(=O)C(O)(c1ccccc1)c1ccccc1 (centres undefined) | inactive: -6.68%
CCN1CCCC(OC(=O)C2(O)c3ccccc3C=Cc3ccccc32)C1 (centres undefined) | inactive: -7.7%
Cc1cc(C(=O)NCC2(N3CCCCC3)CCCCC2)ccc1[N+](=O)[O-] | inactive: -11.2%
O=C(NCC1(N2CCCCC2)CCCCC1)c1cccc(Br)c1 | inactive: -3.61%
COc1ccc(C(=O)NCC2(N(C)C)CCCCC2)cc1 | inactive: 18.5%
C=CCN1CCN(CCOC(=O)C(O)(c2ccccc2)c2ccccc2)CC1 | inactive: 2.51%
O=C(NCC1(N2CCCCC2)CCCCC1)c1cc(F)c(F)cc1Cl | inactive: -4.24%
CN1[C@@H]2CC[C@H]1CC(OC(=O)C(O)(c1ccccc1)c1ccccc1)C2 (some centres undefined) | inactive: -19.7%
O=C(NCC1(N2CCCCC2)CCCCC1)c1cc([N+](=O)[O-])ccc1Cl | inactive: -19.6%
Cc1ccc(C(=O)NCC2(N3CCCCC3)CCCCC2)cc1 | inactive: 30.9%
CC(C)N1C(=O)CC2(CCN(CCOC(=O)C(O)(c3ccccc3)c3ccccc3)CC2)C1=O | inactive: -14.7%
CCN(CC)CC(C)C(C)OC(=O)C(O)(c1ccccc1)c1ccccc1 (centres undefined) | inactive: -5.3%
COc1cc(SC)ccc1C(=O)NCC1(N(C)C)CCCCC1 | inactive: -8.26%
